Test results: US7795378B2, “Peptide compositions for treatment of sexual dysfunction” (Palatin Technologies, Inc., priority 2002, dated 2010)

Amino acid sequences for entries named in this document (tags omitted).
UniProt P32245, whole entry: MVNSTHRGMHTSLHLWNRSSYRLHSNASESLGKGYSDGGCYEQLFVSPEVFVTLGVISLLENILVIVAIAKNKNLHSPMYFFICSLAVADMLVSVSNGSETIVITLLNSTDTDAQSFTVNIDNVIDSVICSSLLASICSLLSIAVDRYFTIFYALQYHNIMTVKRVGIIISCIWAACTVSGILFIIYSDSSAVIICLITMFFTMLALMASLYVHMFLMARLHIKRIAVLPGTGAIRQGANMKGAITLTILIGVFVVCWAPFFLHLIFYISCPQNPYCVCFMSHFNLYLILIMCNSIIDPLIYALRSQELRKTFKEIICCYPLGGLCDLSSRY

Target: T1, hMC4-R (transfected HEK-293 cells) (Homo sapiens, UniProt P32245)
T1 construct: expressed in transfected cells
Assay: Melanocortin receptor-specific functional activity (cAMP) assay
Format: cell-based
Details: HEK-293 cells expressing hMC4-R
Experimental: Functional assays to determine agonist or antagonist status of a test peptide may be conducted by any means known in the art. In one method, a CAMP assay is performed. Human MC4-R cells are grown to confluence in 96 well plates (plating approximately 250,000 cells per well). Identical sets of cells in triplicate are treated with 0.2 mM isobutylmethylxanthine (IBMX) and the chosen concentration of the peptide or alternatively the peptide in the presence of 20 nM NDP-MSH. Cells similarly treated but with only 20 nM NDP-MSH serve as positive control in a volume of 200 μL. A buffer blank, as a negative control, is also included. Incubation is for one hour at 37° C. after which the cells are lysed by the addition of 50 μL of a cell lysis buffer. Total CAMP accumulated in 250 μL of this solution is quantitated using a commercially available low pH cAMP assay kit (Amersham BioSciences) by the procedure specified by the kit supplier. Any peptide (not one of this invention) showing CAMP accumulation in the same range as or higher than the positive control (buffer blank in the presence of α-MSH) is considered to be an agonist. A peptide showing accumulation in the same range as the negative control (buffer blank in the absence of α-MSH) is ineffective at the test concentration if the result is similar to the positive control where α-MSH is also present in the assay. […]

Substance: [Nle^4, D-Phe^7]-α-MSH [NDP]
- stimulation of intracellular cAMP production: caused production and accumulation of intracellular CAMP
